# Apparent affinities of Ab-14 variants for a coronavirus HR2 peptide

All variants were tested on one target, the spike HR2 peptide PDVDLGDISGINAS (SARS-CoV-2).

Parent scFv Ab-14: VH joined to VL by a (GGGGS)3 linker. Changes lie in the heavy chain CDRs alone.
VH: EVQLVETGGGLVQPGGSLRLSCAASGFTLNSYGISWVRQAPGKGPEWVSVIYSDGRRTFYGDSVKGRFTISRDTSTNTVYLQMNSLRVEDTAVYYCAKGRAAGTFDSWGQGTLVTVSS
VL: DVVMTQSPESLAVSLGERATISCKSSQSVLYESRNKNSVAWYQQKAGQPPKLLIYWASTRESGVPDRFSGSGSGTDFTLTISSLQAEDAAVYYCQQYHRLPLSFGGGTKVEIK

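These sequences belong to a second round, designed from the earlier measurements on random variants of the parent. Group labels follow the data file (Ctrl: baseline library sampled from a position-specific scoring matrix, with some repeated check sequences; Rand: our label for a block that the file lists under HC and that is probably the random mutants of the ten best first-round binders; En: ensemble of fine-tuned language models; GP: Gaussian process model; GPLM: also part of the Gaussian process libraries; HC: hill climbing; Gen: genetic algorithm; Gibbs: Gibbs sampling; a sequence that several methods proposed may carry one label only). AlphaSeq pools MATa yeast showing the antibodies with MATalpha yeast showing the peptide. Mating (16 h, 30 °C) was followed by selection of diploids and sequencing of their barcodes. Read counts were normalised to the haploid input and turned into Kd by a linear fit to BCL2-family pairs of known affinity, for each replicate. Mating was done six times.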

Each variant is given by its three heavy chain CDRs, as the data file delimits them; those of the parent are GFTLNSYGIS, VIYSDGRRTFYGDSVK, GRAAGTFDS. Scale: log10 of Kd in nM, estimated from mating counts; low values are strong binders. A mean of the replicates is given; it leaves out those without a signal. "nd" marks a missing value. The strain was present, yet no cells mated with the target were sequenced in any replicate, which points to weak or no binding. Nonspecific signal, from three strains lacking the peptide, appeared in 1% of pairings of all heavy chain designs, centred on 2.08 (5% of these signals below 0.84); values are not corrected for it. For each scFv, signals with the empty controls are counted beside the result. Of ten entries with the parent sequence, four were seen in most replicates (averages 0.34 to 2.37), three in one and three in none, so single entries are noisy. Values of this round are not directly comparable with the first-round values of the same sequences. The authors' rule: three or more of the six replicates give a measured affinity, fewer mean a poor binder.

log10 Kd (nM), mean	detected	signal with controls	CDR-H1	CDR-H2	CDR-H3	group
0.15	6/6	0/18	GFNLDEYGIS	VIYADGMRTFYADSVK	GEVAGTFDT	En_HC
-0.22	6/6	0/18	GFDLNEYGIS	VIYADGVRTAYADNVK	GETAGTFDV	En_Gen
0.64	5/6	0/18	GFNLNSYGIS	VIYSDGRRTFYADEVK	GRTAGTFDS	GP_Gen
-0.32	6/6	0/18	GFDLNEYGIS	VIYADGMRTAYVDSVK	GENAGTFDL	En_Gen
0.01	6/6	0/18	GFTLNEYGIS	VIYSDGRRTFYGDSVK	GRAGVTFDQ	GPLM_HC
1.32	5/6	1/18	GFTLQSYGIS	VIYSDGRRTFYDDSVK	GQLAGTFDS	GPLM_HC
1.84	2/6	0/18	KFDLNSYGIS	VIYSDGRRTFYCDSVK	GREAGTFDS	GP_Gibbs
nd	0/6	0/18	GFTLDEYGIS	VIYADGVRVEYADSVK	GSHGLYVMV	En_Gibbs
0.76	2/6	0/18	GFSLNSYGIS	VIYSDGRRTFYADSVK	GWAAGTFDK	GPLM_Gibbs
nd	0/6	0/18	YFDLNSYGIS	VIYSDGRRTFYIDSVK	GNAAGTFDS	GP_Gen
nd	0/6	0/18	GFDLQEYGVS	VIYADGVRSAYIDSVK	GRVTIGYLD	En_Gibbs
-0.45	6/6	1/18	GFSLNSYGIS	VIYADGRRTFYGDSVK	GQAAGTFDV	GP_Gen
1.97	4/6	1/18	GFTLNMYGIS	VIYSDGRRTFYGDDVK	GRAAGTFDS	Ctrl
-0.35	6/6	1/18	GFDLNEYGIS	VIYADGRRTAYADSVK	GQVAGTFDL	En_Gen
nd	0/6	0/18	GFTLNSYGIS	VIYSDGMRLFYGDSVK	GRAAGTFDQ	Ctrl
1.33	2/6	0/18	GFTLNSYGIS	VIYSDGRRTFYSDSVK	GRNGGTFDV	Ctrl
0.26	1/6	0/18	GFNLNSYGIS	VIYSDGRRTFYDDSVK	GWMAGTFDS	GP_Gibbs
1.97	1/6	0/18	GFNLNSYGIS	VIYSDGRRTFYLDSVK	GRAAGTFDS	Ctrl
1.08	4/6	0/18	GFSLNSYGIS	VIYSDGRRTFYADMVK	GEAAGTFDT	GP_Gibbs
0.06	6/6	0/18	GNTLNSYGIS	VIYADGRRTFYGDSVK	GRAAGTFDS	Ctrl
-0.12	6/6	0/18	GFTLNNYGIS	VIYSDGRRTFYDDSVK	GQTAGTFDS	GP_HC
2.20	4/6	0/18	TFTLNSYGIS	VIYADGRRTFYGDSVK	GRAAGTFHS	Ctrl
nd	0/6	1/18	GVTLNSYGIS	VIYSDGRRTFYGDSVK	GRAAGTFDS	Ctrl
nd	0/6	0/18	GFTLNSYGIS	VIYSDGRRTFYGDSVK	GRAAGTFNK	Ctrl
nd	0/6	0/18	GFTLNSYGIS	VIYSDGRRNFYGDSVK	RRAAGRFDS	Ctrl
nd	0/6	0/18	GFTPNSYGIS	VIYSDGRRTAYSDSVK	NRNAGTFDS	Ctrl
-0.79	6/6	1/18	GFDLNEYGIS	VIYADGMRTSYTDSVK	GNEAGTFDS	En_HC
-0.70	6/6	0/18	GFNLDEYGIS	VIYADGMRTAYADSVK	GNVAGTFDM	En_Gen
-0.43	6/6	2/18	GFDLNEYGIS	VIYADGMRTFYADSVK	GNAAGTFDS	En_HC
0.09	6/6	0/18	GFSLNSYGIS	VIYSDGRRTFYGDSVK	GAEAGTFDS	GP_Gen
nd	0/6	0/18	GFDLNEYGIS	VIYADGMRTAYADSVK	GNNAGTFVL	En_Gen
-0.52	6/6	0/18	GFDLNEYGIS	VIYADGSRTFYADSVK	GENAGTFDV	En_Gen
nd	0/6	0/18	GFTLMSYGIS	VIYSDGRRTFYKDSVK	GQLAGTFDS	GPLM_HC
1.28	6/6	0/18	YFDLNSYGIS	VIYSDGRRTAYGDSVK	GRAAGTFDS	GP_Gen
nd	0/6	0/18	GKSLDEYGIS	VIYADGARAFYANDVK	GNITDVFGK	En_Gibbs
0.74	6/6	0/18	GFQLNSYGIS	VIYSDGRRTFYSDSVK	GRQAGTFDS	GPLM_Gibbs
1.45	3/6	1/18	GFTLNSYGIS	VIYSDGRRTFYRDSVK	GQTAGTFDL	GP_Gibbs
nd	0/6	0/18	GFTLNSYGIS	VIYADGRRTFYADSVK	GRAAGTKDL	Ctrl
nd	0/6	0/18	GFDLNEYGIS	VIYADGMRSYYADSVK	GNVAGTFDM	En_Gen
3.19	1/6	1/18	GFDLNEYGVS	VIYADGQRTQYTDKVK	GSFSADITN	En_Gibbs
0.41	6/6	0/18	GFPLNEYGIS	VIYSDGRRTFYGDSVK	GRQAGTFDT	GP_Gibbs
-0.52	6/6	0/18	GFDLNEYGIS	VIYADGMRTAYADSVK	GTVAGTFDV	En_Gen
1.76	6/6	0/18	GFSLNSYGIS	VIYSDGRRTFYQDSVK	GVSAGTFDS	GPLM_Gibbs
nd	0/6	0/18	GFTFNSYGIS	VIYSDGRRTSYDISVK	GQLAGTFDS	Rand
nd	0/6	0/18	GFTINSYGIS	VIYSDGRRTFYGDSVK	GIAAGTFDS	Ctrl
0.08	6/6	0/18	GFDLDEYGIS	VIYADGRRTFYADSVK	GEIAGTFDS	En_HC
-0.63	6/6	0/18	GFDLNSYGIS	VIYSDGRRTFYVDSVK	GNVAGTFDS	GP_Gen
0.47	6/6	0/18	GFDLNSYGIS	VIYSDGRRTFYADAVK	GRMAGTFDS	GP_Gibbs
-0.64	6/6	1/18	GFDLNEYGIS	VIYADGRRTFYADSVK	GQNAGTFDQ	En_HC
2.27	2/6	1/18	GFTLNSYGIS	VIYADGRRTFYGDSVK	GRAAGPFVS	Ctrl
nd	0/6	0/18	EFDLEEFGVS	VIYADGKRTAYSDNVK	GHEGAHFDV	En_Gibbs
nd	0/6	1/18	GFTLNSYGIS	VIYADGRRTFYGDSVK	GRAAATFDS	Ctrl
nd	0/6	0/18	GFSFNEYGIS	VIYADGKRQAYANNVK	GGKDAAFDI	En_Gibbs
-0.64	6/6	0/18	GFTLDEYGIS	VIYADGRRTFYADSVK	GNVAGTFDV	En_HC
2.35	4/6	0/18	GFEIQEFGIS	VIYADGERTNYSENVK	GTLAGTFTT	En_Gibbs
1.92	2/6	0/18	GFSLNSYGIS	VIYSDGRRTFYGDSVK	GQAAGTFDL	GPLM_Gen
nd	0/6	0/18	GFSLNSYGIS	VIYSDGRRTFYADSVK	GRTAGKFDS	GPLM_Gen
-0.59	6/6	0/18	GFDLNEYGIS	VIYADGVRTFYVDSVK	GQVAGTFNV	En_HC
1.47	4/6	0/18	GFTLNSYGIS	VIYSDGRRTFYTDSVK	GMYAGTFDS	GP_HC
nd	0/6	0/18	GDALDEYGIS	VIYADGMRSSYSNDVK	GNNFGNKMV	En_Gibbs
1.79	5/6	0/18	GFHLNSYGIS	VIYSDGRRTFYIDSVK	GEAAGTFDS	GPLM_Gibbs
-0.35	6/6	0/18	GFDLDEYGIS	VIYADGMRTFYADSVK	GNIAGTFLL	En_HC
-0.49	6/6	0/18	GFDLNEYGIS	VIYADGMRTAYSDDVK	GENAGTFDT	En_Gen
0.92	6/6	1/18	GFDLGEYGIS	VIYADGRRFAYKNAVK	GLVEGMLDI	En_Gibbs
3.15	1/6	2/18	GKDLQEYGVS	VIYADGMRQSYADSVK	GQHAGYLDK	En_Gibbs
nd	0/6	0/18	GFTLNDYGIS	VMYSDGRRTFYGDSVK	GRAAGTFDE	Ctrl
-1.14	6/6	1/18	GFDLNEYGIS	VIYADGMRTAYVDSVK	GEQAGTFDL	En_HC
nd	0/6	0/18	GFTLNEYGIS	VYYSDGRRTFYTDSVK	GRFAGTFDS	Rand
1.02	6/6	0/18	GFELNSYGIS	VIYSDGRRTFYGDSVK	GQTAGTFDT	GP_Gen
0.62	5/6	0/18	GFWLNEYGIS	VIYSDGRRTFYGDSVK	GKAAGTFDT	GPLM_Gen
nd	0/6	0/18	KFTLNSYGIS	VIYSDGRRTFYGDSVK	GRAAGTFCS	Ctrl
nd	0/6	0/18	GFGLDEYGIS	VIYADGQRTVYTQDVK	GLYTFKKGI	En_Gibbs
-0.33	6/6	0/18	GFDLNEYGIS	VIYADGKRTAYADSVK	GNQAGTFDL	En_Gen
2.05	1/6	0/18	GFTLSKYGIS	VIYSDGRRTFYGDSVR	GKAAGTFDS	Ctrl
1.44	1/6	0/18	GFSLNSYGIS	VIYSDGRRTFYGDSVK	GRTAGTFDL	GPLM_Gen
1.55	1/6	0/18	GFTLNSYGIS	VIYADGRRTTYGDSFK	GRAAGTNKS	Rand
1.56	1/6	0/18	FFTLNEYGIS	VIYSDGRRTFYTDSVK	GRFAGTFDS	GP_HC
nd	0/6	0/18	GFDIEDYGIS	VIYADGVRAMYKESVK	GGIAGTFLI	En_Gibbs

From the list, the first 11 with no signal in any replicate:

| CDR-H1 | CDR-H2 | CDR-H3 | group | log10 Kd (nM), mean | detected | signal with controls |
|---|---|---|---|---|---|---|
| GFTLDEYGIS | VIYADGVRVEYADSVK | GSHGLYVMV | En_Gibbs | nd | 0/6 | 0/18 |
| YFDLNSYGIS | VIYSDGRRTFYIDSVK | GNAAGTFDS | GP_Gen | nd | 0/6 | 0/18 |
| GFDLQEYGVS | VIYADGVRSAYIDSVK | GRVTIGYLD | En_Gibbs | nd | 0/6 | 0/18 |
| GFTLNSYGIS | VIYSDGMRLFYGDSVK | GRAAGTFDQ | Ctrl | nd | 0/6 | 0/18 |
| GVTLNSYGIS | VIYSDGRRTFYGDSVK | GRAAGTFDS | Ctrl | nd | 0/6 | 1/18 |
| GFTLNSYGIS | VIYSDGRRTFYGDSVK | GRAAGTFNK | Ctrl | nd | 0/6 | 0/18 |
| GFTLNSYGIS | VIYSDGRRNFYGDSVK | RRAAGRFDS | Ctrl | nd | 0/6 | 0/18 |
| GFTPNSYGIS | VIYSDGRRTAYSDSVK | NRNAGTFDS | Ctrl | nd | 0/6 | 0/18 |
| GFDLNEYGIS | VIYADGMRTAYADSVK | GNNAGTFVL | En_Gen | nd | 0/6 | 0/18 |
| GFTLMSYGIS | VIYSDGRRTFYKDSVK | GQLAGTFDS | GPLM_HC | nd | 0/6 | 0/18 |
| GKSLDEYGIS | VIYADGARAFYANDVK | GNITDVFGK | En_Gibbs | nd | 0/6 | 0/18 |

Source: Li et al. 2023 (doi:10.1038/s41467-023-39022-2), MIT Lincoln Laboratory and A-Alpha Bio; data file from the FLAb repository.